Chains of the proteins cited; added tags and fusions are not shown.
UniProt P35414, whole entry: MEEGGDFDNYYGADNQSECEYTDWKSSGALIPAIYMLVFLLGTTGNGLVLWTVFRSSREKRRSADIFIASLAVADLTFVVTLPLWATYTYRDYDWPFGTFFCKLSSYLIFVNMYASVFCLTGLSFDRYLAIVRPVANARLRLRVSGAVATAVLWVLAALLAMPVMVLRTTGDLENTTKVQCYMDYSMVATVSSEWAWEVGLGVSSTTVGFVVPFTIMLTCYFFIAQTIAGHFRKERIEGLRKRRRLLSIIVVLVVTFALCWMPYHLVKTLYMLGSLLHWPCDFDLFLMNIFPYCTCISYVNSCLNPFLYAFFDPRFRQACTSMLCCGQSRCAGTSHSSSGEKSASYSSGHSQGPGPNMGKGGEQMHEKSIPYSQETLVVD

In patent US10590113B2, “6-hydroxy-4-oxo-1,4-dihydropyrimidine-5-carboxamides as APJ agonists” (priority 2016, dated 2020):

Biological target: human APJ receptor (Homo sapiens, UniProt P35414)
Assay: Intracellular cAMP Accumulation Assay (APJ hcAMP, HTRF)
Format: cell-based
Conditions: read-out: hAPJ cAMP EC50 Potency range, cAMP accumulation, potency range class

SMILES | EC50 [nM]
CCCCc1nc(=O)c(C(=O)N2CC[C@H](c3ccccc3)C2)c(O)n1[C@@H](CC)c1cccc(C#N)c1 | 0.01 to 10
CCCCc1nc(=O)c(C(=O)N2CCC(c3ncc(F)cc3F)C2)c(O)n1[C@@H](CC)c1cccc(C#N)c1 (single isomer, unassigned) | 0.01 to 10
CC[C@@H](c1cccc(C#N)c1)n1c(COC(C)C)nc(=O)c(C(=O)N2CC[C@H](c3ccccc3)C2)c1O | 0.01 to 10
CCCCc1nc(=O)c(C(=O)N2CCC(c3ccc(F)cn3)C2)c(O)n1[C@@H](CC)c1cccc(C#N)c1 (single isomer, unassigned) | 0.01 to 10
CCCCc1nc(=O)c(C(=O)N2CCC(c3ncc(Cl)cc3F)C2)c(O)n1[C@@H](CC)c1cccc(C#N)c1 (single isomer, unassigned) | 0.01 to 10
CCCCc1nc(=O)c(C(=O)N2CCC(c3ncc(F)cc3F)C2)c(O)n1[C@@H](CC)c1cccc(OC)c1 (single isomer, unassigned) | 0.01 to 10
CCCCc1nc(=O)c(C(=O)N2CCC(c3ncc(F)cc3F)C2)c(O)n1[C@@H](CC)c1cc(F)cc(F)c1 (single isomer, unassigned) | 0.01 to 10
CCCCc1nc(=O)c(C(=O)N2CCC(c3ccc(Cl)cn3)C2)c(O)n1[C@H](c1cccc(C#N)c1)C1CC1 (single isomer, unassigned) | 0.01 to 10
CCCCc1nc(=O)c(C(=O)N2CCC(c3ncc(Cl)cc3F)C2)c(O)n1[C@@H](CC)c1cc(F)cc(F)c1 (single isomer, unassigned) | 0.01 to 10
CCCCc1nc(=O)c(C(=O)N2CCC(c3ncc(Cl)cc3F)C2)c(O)n1[C@@H](CC)c1ccccc1 (single isomer, unassigned) | 0.01 to 10
CCCCc1nc(=O)c(C(=O)N2CCC(c3ncc(F)cc3F)C2)c(O)n1C(CC)c1ccccc1 (single isomer, unassigned) | 0.01 to 10

Same assay, conditions: read-out: hAPJ cAMP EC50 Potency range, intracellular cAMP accumulation

SMILES | EC50 [nM]
CCCCc1nc(=O)c(C(=O)N2CCC(c3ccccc3F)C2)c(O)n1[C@@H](CC)c1ccccc1 (single isomer, unassigned) | 0.01 to 10
CCCCc1nc(=O)c(C(=O)N2CC[C@@H](c3ccccc3)C2)c(O)n1[C@H]1CCCc2ccccc21 | 10 to 100
CCCCc1nc(=O)c(C(=O)N2CC[C@H](c3ccccc3)C2)c(O)n1[C@H]1CCCc2ccccc21 | 10 to 100
CCCCc1nc(=O)c(C(=O)N2CC[C@@H](c3ccccc3)C2)c(O)n1[C@@H]1CCc2ccccc21 | 100 to 300
CCCCc1nc(=O)c(C(=O)N2CC[C@H](c3ccccc3)C2)c(O)n1[C@@H]1CCc2ccccc21 | 10 to 100
CCCCc1nc(=O)c(C(=O)N2CC[C@H](c3ccccc3)C2)c(O)n1C(C)c1ccccc1 (some centres unmarked) | 0.01 to 10
